Target: Lactate dehydrogenase (LDH) (Oryctolagus cuniculus, UniProt P13491)
Experiment: Inhibition of dehydrogenase activity of lactate dehydrogenase
Assay type: biochemical
Settings: ratio of LDH IC50 to CtBP2 IC50

O=C(O)/C(Cc1ccc(Cl)cc1)=N\O [Compound 14g, 3-(4-chlorophenyl)-2-(hydroxyimino)propanoic acid]
Selectivity for CtBP2 over LDH: > 170 fold

Reference: article PMC4993153 (Bioorganic & medicinal chemistry, 2016)
